Laboratory results taken from patent US9447092B2, “Pharmaceutically active compounds” (CANCER RESEARCH TECHNOLOGY LIMITED, priority 2012, dated 2016).

Sequences of proteins named here, by UniProt entry; tags and fusion partners are left off. A change or cut given only in a name is not applied to a line headed by its entry.
UniProt O14965: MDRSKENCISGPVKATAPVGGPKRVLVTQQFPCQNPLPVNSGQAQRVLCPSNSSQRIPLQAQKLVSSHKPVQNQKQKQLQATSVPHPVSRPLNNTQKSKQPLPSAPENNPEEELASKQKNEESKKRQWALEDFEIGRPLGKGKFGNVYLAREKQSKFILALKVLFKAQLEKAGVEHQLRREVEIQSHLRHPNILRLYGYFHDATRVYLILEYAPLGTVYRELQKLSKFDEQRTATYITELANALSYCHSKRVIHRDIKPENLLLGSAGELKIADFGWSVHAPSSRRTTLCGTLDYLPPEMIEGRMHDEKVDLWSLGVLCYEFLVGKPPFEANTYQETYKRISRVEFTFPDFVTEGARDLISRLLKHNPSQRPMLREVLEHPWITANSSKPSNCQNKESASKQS
UniProt P33261, whole entry: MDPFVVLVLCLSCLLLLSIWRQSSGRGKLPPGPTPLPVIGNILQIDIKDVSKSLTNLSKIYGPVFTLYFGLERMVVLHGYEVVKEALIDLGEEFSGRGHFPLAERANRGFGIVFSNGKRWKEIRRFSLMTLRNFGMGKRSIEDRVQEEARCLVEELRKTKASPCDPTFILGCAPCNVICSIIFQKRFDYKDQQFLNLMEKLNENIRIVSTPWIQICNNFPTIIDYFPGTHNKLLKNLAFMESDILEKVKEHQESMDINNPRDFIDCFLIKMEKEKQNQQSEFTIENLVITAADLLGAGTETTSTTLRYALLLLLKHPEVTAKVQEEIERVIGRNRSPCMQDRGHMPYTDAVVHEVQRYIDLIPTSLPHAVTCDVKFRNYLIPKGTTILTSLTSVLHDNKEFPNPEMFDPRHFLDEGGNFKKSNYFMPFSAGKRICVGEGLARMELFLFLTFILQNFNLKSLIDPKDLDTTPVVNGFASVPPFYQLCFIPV

Experiments:
Aurora-A = Aurora-A (Homo sapiens (Human), UniProt O14965); settings: read-out: Aurora-A IC50; biochemical assay
[1] = tested on: MOLM-13 human FLT3-ITD positive AML cell line; experiment: Cell viability assay, MOLM-13; assay type: cell-based; settings: MOLM-13 FLT3-ITD positive AML cells
[2] = tested on: MV4-11 human FLT3-ITD positive AML cell line; experiment: Cell viability assay, MV4-11; assay type: cell-based; settings: MV4-11 FLT3-ITD positive AML cells
CYP2C19 = CYP2C19 (Homo sapiens (Human), UniProt P33261); experiment: Inhibition of CYP isozymes in human liver microsomes, CYP2C19

SMILES	pIC50 (Aurora-A)	GI50 [1] [nM]	GI50 [2] [nM]	pIC50 (CYP2C19)
Cc1nc(CN2CCN(c3c(Cl)cnc4[nH]c(-c5cn(C)nc5C)nc34)CC2)no1 [Example 3, 3-((4-(6-Chloro-2-(1,3-dimethyl-1H-pyrazol-4-yl)-3H-imidazo[4,5-b]pyridin-7-yl)piperazin-1-yl)methyl)-5-methyl-1,2,4-oxadiazole]	7.28			
Cc1nn(C)cc1-c1nc2c(N3CCN(Cc4ccc(Cl)cc4)CC3)c(Cl)cnc2[nH]1 [Example 1, 6-Chloro-7-(4-(4-chlorobenzyl)piperazin-1-yl)-2-(1,3-dimethyl-1H-pyrazol-4-yl)-3H-imidazo[4,5-b]pyridine]		104	291	4.30 to 5.00

pIC50: −log10 of the molar value.
